Earlier results as cited in PMC8694095.

Amino acid sequences for entries named in this document (tags omitted). A change or cut given only in a name is not applied to a line headed by its entry. Residues count along the entry.
UniProt P97784: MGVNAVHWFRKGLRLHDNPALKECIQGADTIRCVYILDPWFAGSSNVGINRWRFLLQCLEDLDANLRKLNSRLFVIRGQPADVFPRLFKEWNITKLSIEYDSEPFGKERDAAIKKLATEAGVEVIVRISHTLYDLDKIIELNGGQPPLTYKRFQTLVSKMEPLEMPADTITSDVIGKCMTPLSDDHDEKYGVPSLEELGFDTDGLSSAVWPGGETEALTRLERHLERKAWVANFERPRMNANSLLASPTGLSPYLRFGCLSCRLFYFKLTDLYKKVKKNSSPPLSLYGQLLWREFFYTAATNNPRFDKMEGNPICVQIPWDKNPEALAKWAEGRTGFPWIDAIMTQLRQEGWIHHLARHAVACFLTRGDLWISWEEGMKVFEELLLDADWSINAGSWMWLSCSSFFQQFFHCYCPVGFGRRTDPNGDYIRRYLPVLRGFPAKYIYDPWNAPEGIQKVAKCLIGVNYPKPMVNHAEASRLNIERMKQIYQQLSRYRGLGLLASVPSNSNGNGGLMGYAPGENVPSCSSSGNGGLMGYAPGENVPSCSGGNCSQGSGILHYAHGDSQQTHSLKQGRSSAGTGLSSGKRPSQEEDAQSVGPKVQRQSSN
UniProt O54943, 1132-1252: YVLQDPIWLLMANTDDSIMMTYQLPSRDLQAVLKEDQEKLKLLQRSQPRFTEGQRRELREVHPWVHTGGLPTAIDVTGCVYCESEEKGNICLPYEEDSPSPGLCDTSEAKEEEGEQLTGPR

Biological target: CRY (UniProt P97784)

pKd: 7.70
Substance: PER CBD (from UniProt O54943)

pKd: −log10 of the molar value.
